Biological target: Serine/threonine-protein kinase PLK1 (Homo sapiens, UniProt P53350)
Assay: Binding affinity to […] (unknown origin) using MAGPMQS[pT]PLNGAKK tracer peptide as substrate by fluorescence polarization binding assay

Amino acid sequences for entries named in this document (tags omitted).
UniProt P53350, whole entry: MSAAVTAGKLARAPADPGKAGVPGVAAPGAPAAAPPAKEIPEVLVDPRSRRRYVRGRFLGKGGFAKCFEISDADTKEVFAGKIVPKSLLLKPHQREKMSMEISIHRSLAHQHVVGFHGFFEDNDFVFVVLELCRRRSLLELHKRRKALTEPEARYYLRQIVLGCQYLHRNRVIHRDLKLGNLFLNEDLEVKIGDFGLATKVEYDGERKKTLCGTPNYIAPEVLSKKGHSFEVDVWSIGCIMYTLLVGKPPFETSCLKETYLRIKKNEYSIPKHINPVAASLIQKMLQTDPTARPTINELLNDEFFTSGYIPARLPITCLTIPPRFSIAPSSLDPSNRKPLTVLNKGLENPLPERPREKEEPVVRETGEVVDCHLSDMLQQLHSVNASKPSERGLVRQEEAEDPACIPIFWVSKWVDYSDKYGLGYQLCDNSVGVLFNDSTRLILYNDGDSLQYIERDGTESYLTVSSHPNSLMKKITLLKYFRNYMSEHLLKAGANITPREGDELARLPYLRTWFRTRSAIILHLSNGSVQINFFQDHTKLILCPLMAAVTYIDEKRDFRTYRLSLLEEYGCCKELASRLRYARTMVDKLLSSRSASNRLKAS

IC50: 60.9 µM
SMILES: CCCCCCc1ccc(C(=O)Nc2ccccc2C(=O)O)cc1

Reference: ChEMBL document CHEMBL5036328, “Nonpeptidic, Polo-Box Domain-Targeted Inhibitors of PLK1 Block Kinase Activity, Induce Its Degradation and Target-Resistant Cells” (J Med Chem, 2021)
